Tested on: Human Hepatocytes (HepG2)
Assay: ICAM1 expression in human hepatocytes (HepG2)
Format: cell-based
Details: 1 ug/ml, 24 hrs, 18srRNA housekeeping control
Experimental: Human Hepatocytes (HepG2) were plated in 12 well plates (1×10^5 cells/well). The cells were grown overnight in 5%/37° C./CO2 incubator. Subsequently, cells were incubated with medium, mouse IFNγ (1 ug/ml), Human IFNγ (1 ug/ml), mouse IFNγ derived Lac-HSA-PEG-IFNγ (1 ug/ml), Lac-HSA or Lac-HSA-PEG-IFNγ (1 ug/ml) after 2 hrs of blocking with Lac-HSA. After 24 hrs of incubation, cells were lysed, RNA was isolated and reverse transcribed. The cDNA was used for the analysis of Inter-Cellular Adhesion Molecule 1 (ICAM1) expression, which is known to be induced in response to IFNγ. 18srRNA was used a housekeeping control.

With “Lac-HSA: 25 lactose molecules coupled to human serum albumin [reference compound]” the ICAM1 expression was “neither mouse truncated IFNγ nor Lac-HSA induced ICAM1 expression”.

From patent publication US10442845B2, “Interferon analogs” (BiOrion Technologies B.V., priority 2009, dated 2019)
